The text below walks through data of patent publication US20230399374A1, “Compounds, Compositions and Methods of Use to Treat Bone Fractures” (PURDUE RESEARCH FOUNDATION, priority 2020, published 2023).

The subject of the data set is midshaft femur fractures. Description: Biodistribution of radio-iodinated peptide payloads (CK2.3 and others) coupled to acidic oligopeptides. The note with it: 24 hours post-injection, 10 days post-fracture, FIG. 4.

As for “HSDGIFTDSYSRYRKQMAVKKYLAAVLGKRYKQRVKNKC [PACAP]”, the “fracture targetability of payloads coupled to (L)Asp10 (in words)” value is “differed somewhat from the other anabolic peptides in fracture targetability”.
